Literature values in patent publication US20220235325A1, “STIMULATION OF DENDRITIC CELL ACTIVITY BY HOMOTAURINE AND ANALOGUES THEREOF” (Therapeutic Solutions International, Inc., priority 2021, published 2022).

System: metastatic colorectal cancer
Settings: added to a protocol of bevacizumab and chemotherapy; cited from earlier work

In the case of “cetuximab: anti-epidermal growth factor receptor (EGFR) monoclonal antibody (mAb)”, the Survival is given as “decreased survival”.
